Test results: paper PMC9568543, “Bee-safe peptidomimetic acaricides achieved by comparative genomics” (Scientific Reports, 2022)

Protein sequences, listed by entry. Tags and fused reporters are not part of them.
UniProt A0A7T1TE40, entry or part of it: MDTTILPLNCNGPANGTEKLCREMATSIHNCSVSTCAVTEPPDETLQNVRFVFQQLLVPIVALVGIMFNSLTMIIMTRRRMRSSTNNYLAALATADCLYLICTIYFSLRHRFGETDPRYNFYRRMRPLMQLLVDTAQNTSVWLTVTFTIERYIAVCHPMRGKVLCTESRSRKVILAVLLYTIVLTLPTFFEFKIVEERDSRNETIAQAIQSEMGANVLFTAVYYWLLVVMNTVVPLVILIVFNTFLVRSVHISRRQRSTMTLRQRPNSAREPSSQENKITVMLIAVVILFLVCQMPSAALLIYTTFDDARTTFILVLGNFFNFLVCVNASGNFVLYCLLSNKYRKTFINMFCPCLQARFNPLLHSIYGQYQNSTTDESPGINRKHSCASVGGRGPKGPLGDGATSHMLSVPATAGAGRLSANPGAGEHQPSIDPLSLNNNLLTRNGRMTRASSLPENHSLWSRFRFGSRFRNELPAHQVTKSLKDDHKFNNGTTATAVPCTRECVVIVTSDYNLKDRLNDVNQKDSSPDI

target: T1, Varroa mite proctolin receptor (VdProctR) (Varroa destructor, UniProt A0A7T1TE40); test: Receptor activity assay (aequorin luminescence), CHO cells transiently expressing the receptor, first set of ligands; type: cell-based; settings: EC50 relative to proctolin, first set (transient expression)
Description: (§1) Cells were transiently transfected with pcDNA3.1 + containing the open reading frame of Varroa mite proctolin receptor (VdProctR) or empty vector using TransIT®-2020 (Mirus Bio). Approximately thirty hours after transfection, the cells were collected and preincubated with coelenterazine h for the functional assay, as previously described[30],[31],[52]. The ligands in serial dilutions were loaded into 96-well opaque plates. Cells treated with coelenterazine h were injected into each well on an Orion microplate luminometer (Berthold) luminescent plate reader. The luminescence was measured for 20 s immediately after the cell injections. Data analyses were performed to determine the accumulated luminescence value for 20 s after extraction of blank-well luminescence. A dose–response curve was generated and the EC50 (50% effective concentration) was calculated in Origin 7 (OriginLab) as described in Jiang et al.[31],[53]. The three biological replications were regressed for the dose–response curves with 95% confidence intervals (Table 1). For the tests of the second set of ligands, we used the cell line that stably expressed VdProctR, which were selected by Zeocin for 5 passages.

Row | Molecule | Fold change
1 | CC(C)C[C@H](NC(=O)[C@H](Cc1ccc(O)cc1)NC(=O)[C@H](N)CCCNC(=N)N)C(=O)N1CCC[C@H]1C(=O)N[C@H](C(=O)O)[C@@H](C)O [Analog 2330, [dR]YLPT] | 35.2
2 | CC(C)C[C@H](NC(=O)[C@H](Cc1ccc(O)cc1)NC(=O)[C@@H](N)CCCNC(=N)N)C(=O)N1[C@H](C(=O)N[C@H](C(=O)O)[C@@H](C)O)C[C@@H]2CCCC[C@@H]21 [Analog 2336, RYL[Oic]T] | 7.5
3 | CC(C)C[C@H](NC(=O)[C@H](Cc1ccc(O)cc1)NC(=O)[C@@H](N)CCCNC(=N)N)C(=O)N1CCC[C@H]1C(=O)N[C@H](C(=O)O)[C@@H](C)O [Proctolin, RYLPT] | 1
4 | RYL[Aib]T [Analog 2335] | 11.0
5 | RYL[HyP]T [Analog 2334] | 2.8
6 | RYL[β3P]T [Analog 2331] | 32.3

target: T1, Varroa mite proctolin receptor (VdProctR); test: Receptor activity assay, CHO cell line stably expressing the receptor, second set of ligands; type: cell-based; settings: EC50 relative to proctolin, second set (stable expression)
Description: as §1

Row | Molecule | Fold change
7 | CC(C)C[C@H](NC(=O)[C@H](Cc1ccc(O)cc1)NC(=O)[C@@H](N)CCCNC(=N)N)C(=O)N1CCC[C@H]1C(=O)N[C@H](C(=O)O)[C@@H](C)O [Proctolin, RYLPT] | 1.0
